This assay addresses T1, Caspase-3 (Homo sapiens, UniProt P42574).
T1 sequence (P42574 whole entry): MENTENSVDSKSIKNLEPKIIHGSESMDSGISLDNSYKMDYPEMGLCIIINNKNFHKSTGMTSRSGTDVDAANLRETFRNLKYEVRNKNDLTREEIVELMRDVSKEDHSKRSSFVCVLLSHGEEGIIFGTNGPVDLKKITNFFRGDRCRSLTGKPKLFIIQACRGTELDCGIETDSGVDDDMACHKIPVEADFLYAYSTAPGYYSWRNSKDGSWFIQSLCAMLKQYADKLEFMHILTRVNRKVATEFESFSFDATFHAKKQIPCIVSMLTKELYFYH

Structures are written as SMILES.

The record followed here is BindingDB's records for doi:10.1074/jbc.273.49.32608 (Merck Research Laboratories, 1998).

`CC(=O)N[C@@H](CC(=O)O)C(=O)N[C@@H](CCC(=O)O)C(=O)N[C@H](C(=O)N[C@H](C=O)CC(=O)O)C(C)C` [(4S)-4-{[(1S)-1-{[(2S)-1-carboxy-3-oxopropan-2-yl]carbamoyl}-2-methylpropyl]carbamoyl}-4-[(3S)-3-acetamido-3-formamidopropanoic acid]butanoic acid] showed a Ki of 0.23 nM. This counts as sub-nanomolar.
